In publication PMC7244308 (Science Advances, 2020):

Assays:
Type in all cases: binding
human Mac-1 = human Mac-1 (Homo sapiens, UniProt P11215)
Mac-1 + PNGase = Mac-1 + PNGase (Homo sapiens, UniProt P11215)
SLO = SLO (Streptococcus pyogenes serotype M1, UniProt P0C0I3); experiment: biochemical

Molecule	Kd (human Mac-1) [µM]	Kd (Mac-1 + PNGase) [µM]	Kd (SLO) [µM]
Ply: pneumolysin, CDC toxin from Streptococcus pneumoniae, recombinant His-tagged	0.00662	0.0278	
CC(C)CCC[C@@H](C)[C@H]1CC[C@H]2[C@@H]3CC=C4C[C@@H](O)CC[C@]4(C)[C@H]3CC[C@]12C [Cholesterol]			0.0523
